# Values quoted from earlier work, collected in patent US20150272967A1, “EXTREMELY HIGH LOADING DOSE” (priority 2013, published 2015).
# Conditions: higher doses associated with increased risk of hypercalciuria, hypercalcemia
substance,measurement,value
Vitamin D,Tolerable Upper Intake Level (UL),100 mcg per day
